In this assay the target is Human Cav3.1 (Homo sapiens (Human), UniProt O43497). Briefly: Human Cav3.1 calcium channel patch clamp assay (SyncroPatch 384PE, HEK-293 natClytin/TASK1+Cav3.1 cell line).

Sequences of proteins named here, by UniProt entry; tags and fusion partners are left off.
UniProt O43497, whole entry: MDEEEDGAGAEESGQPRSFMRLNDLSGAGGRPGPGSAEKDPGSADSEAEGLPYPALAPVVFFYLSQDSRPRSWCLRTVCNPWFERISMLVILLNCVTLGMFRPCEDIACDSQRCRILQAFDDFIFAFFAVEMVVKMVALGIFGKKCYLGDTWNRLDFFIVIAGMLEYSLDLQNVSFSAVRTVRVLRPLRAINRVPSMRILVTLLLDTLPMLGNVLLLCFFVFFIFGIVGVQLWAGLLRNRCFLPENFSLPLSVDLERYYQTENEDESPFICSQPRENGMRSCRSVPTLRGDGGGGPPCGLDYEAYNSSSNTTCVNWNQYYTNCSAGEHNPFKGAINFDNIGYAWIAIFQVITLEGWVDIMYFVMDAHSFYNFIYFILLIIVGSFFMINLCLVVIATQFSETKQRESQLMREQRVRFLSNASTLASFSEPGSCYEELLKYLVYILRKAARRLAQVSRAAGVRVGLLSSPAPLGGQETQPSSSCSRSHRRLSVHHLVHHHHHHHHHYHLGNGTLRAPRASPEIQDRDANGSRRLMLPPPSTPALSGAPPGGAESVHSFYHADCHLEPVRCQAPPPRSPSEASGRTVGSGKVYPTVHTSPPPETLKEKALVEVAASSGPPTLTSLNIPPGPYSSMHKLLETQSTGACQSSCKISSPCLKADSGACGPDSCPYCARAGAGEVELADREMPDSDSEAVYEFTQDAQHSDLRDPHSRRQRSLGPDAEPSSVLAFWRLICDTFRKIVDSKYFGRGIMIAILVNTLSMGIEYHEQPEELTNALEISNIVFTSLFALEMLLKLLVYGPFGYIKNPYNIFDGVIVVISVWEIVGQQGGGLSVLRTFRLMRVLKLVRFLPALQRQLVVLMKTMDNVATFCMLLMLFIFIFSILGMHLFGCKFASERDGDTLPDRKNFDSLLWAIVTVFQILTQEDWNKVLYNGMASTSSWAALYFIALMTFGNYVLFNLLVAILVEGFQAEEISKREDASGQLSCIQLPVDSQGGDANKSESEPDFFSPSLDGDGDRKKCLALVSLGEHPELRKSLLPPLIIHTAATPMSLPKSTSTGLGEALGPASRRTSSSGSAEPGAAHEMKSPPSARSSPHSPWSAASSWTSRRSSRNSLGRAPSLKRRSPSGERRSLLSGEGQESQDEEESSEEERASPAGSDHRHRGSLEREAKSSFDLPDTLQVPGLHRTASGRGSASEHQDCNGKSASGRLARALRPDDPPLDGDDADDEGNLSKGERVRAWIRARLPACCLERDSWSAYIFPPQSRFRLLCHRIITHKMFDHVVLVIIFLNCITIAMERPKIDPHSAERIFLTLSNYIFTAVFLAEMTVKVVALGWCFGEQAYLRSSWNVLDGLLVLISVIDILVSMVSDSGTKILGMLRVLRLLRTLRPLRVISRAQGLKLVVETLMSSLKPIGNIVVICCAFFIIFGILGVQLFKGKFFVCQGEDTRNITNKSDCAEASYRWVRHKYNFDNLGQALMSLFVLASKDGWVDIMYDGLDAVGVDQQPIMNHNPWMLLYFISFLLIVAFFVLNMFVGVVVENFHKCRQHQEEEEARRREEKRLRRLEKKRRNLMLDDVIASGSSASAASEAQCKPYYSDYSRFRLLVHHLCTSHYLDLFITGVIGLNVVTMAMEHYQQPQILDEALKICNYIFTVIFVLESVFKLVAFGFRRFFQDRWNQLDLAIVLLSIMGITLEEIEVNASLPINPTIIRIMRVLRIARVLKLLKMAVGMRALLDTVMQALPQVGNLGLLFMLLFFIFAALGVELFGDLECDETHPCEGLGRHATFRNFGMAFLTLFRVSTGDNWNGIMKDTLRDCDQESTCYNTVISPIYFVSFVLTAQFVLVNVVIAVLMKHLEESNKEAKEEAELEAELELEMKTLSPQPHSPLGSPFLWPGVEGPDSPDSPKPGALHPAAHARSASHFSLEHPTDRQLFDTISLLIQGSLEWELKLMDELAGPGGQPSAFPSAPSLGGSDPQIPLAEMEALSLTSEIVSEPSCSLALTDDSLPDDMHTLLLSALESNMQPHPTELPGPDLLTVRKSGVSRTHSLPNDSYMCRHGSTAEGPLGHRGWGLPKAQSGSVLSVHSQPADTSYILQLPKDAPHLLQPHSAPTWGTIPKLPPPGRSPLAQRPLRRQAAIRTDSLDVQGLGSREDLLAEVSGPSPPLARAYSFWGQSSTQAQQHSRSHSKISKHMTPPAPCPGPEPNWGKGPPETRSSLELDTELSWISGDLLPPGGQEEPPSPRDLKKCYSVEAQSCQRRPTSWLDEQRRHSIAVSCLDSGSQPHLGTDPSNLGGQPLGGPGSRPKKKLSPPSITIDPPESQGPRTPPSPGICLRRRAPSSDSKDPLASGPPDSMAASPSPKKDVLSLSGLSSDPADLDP

The values that follow come from patent US20250214932A1, “T-TYPE CALCIUM CHANNEL MODULATORS COMPRISING AN AZASPIRONONANE CORE AND METHODS OF USE THEREOF” (Praxis Precision Medicines, Inc., priority 2022, published 2025).

As a reminder, the IC50 is the concentration at which inhibition is half-maximal.

Structures are written as SMILES. Read-outs that look alike come from different tables or passages of the source.

For the compound `CC(C)(C)NC(=O)CN1CC2(CCC(C(=O)Nc3ccc(F)c(Cl)c3)CC2)C1`, the “Single Point Data % Inhibition” value (Testing Conc. 1.25 (unit not given), human Cav3.1) is given as 85.622%. Moreover, the IC50 reads like this: (read-out: Cav3.1 (VDB) IC50, voltage dependent block (VDB)) 310 nM; (read-out: Human Cav3.1 IC50, patch clamp, HEK-293 natClytin/TASK1+Cav3.1 cells, class symbols) less than 1000 nM.
